Data from ChEMBL document CHEMBL2385017, “Selective Inhibitors of Fibroblast Activation Protein (FAP) with a (4-Quinolinoyl)-glycyl-2-cyanopyrrolidine Scaffold” (ACS Med Chem Lett, 2013).

Molecular target: Dipeptidyl peptidase 2 (Homo sapiens, UniProt Q9UHL4)
Assay: Inhibition of DPP2 in human seminal plasma using Lys-Ala-p-nitroanilide as substrate incubated for 15 mins prior to substrate addition

N#C[C@@H]1CCCN1C(=O)CNC(=O)c1cccc2cnccc12
IC50: > 100 µM
